Legend:
[1] = test system: Human foreskin fibroblasts, HFF; assay: Cell morphology by F-actin staining and shape factor; type: cell-based
Method: (§1) Labtek chamber slides (Nalge Nunc International, Rochester, N.Y.) were coated overnight at 4° C. with FNf-ANPs or FNf as described above to attain equivalent display with FNf. […] Fibroblasts were seeded at densities and incubated for times described in each figure legend. After incubation at 37° C., samples were fixed with either 20 or 3.7% formaldehyde for 9 minutes or 15 minutes, respectively, and permeabilized with 0.5% Triton-X 100 for 20 minutes; only samples stained with anti-fibronectin antibody (clone IST-4) or anti-integrin β1 were fixed with 2% formaldehyde. Samples were then incubated with primary antibodies in blocking buffer (3% BSA) for 1 hour, washed, and further incubated with the appropriate secondary antibodies for 1 hour. Where indicated, cells were also incubated with TexasRed X- or fluoroscein-conjugated phalloidin to visualize F-actin. Cells were examined using a Leica SP/2 Confocal Laser Scanning Microscope.
To characterize the effect of nanoparticle display of FNf on early cellular responses, adhesion and morphology were examined. […] These trends in cell morphogenesis support the low cell attachment achieved with FNf compared to that attained with FNf-ANP. Next, we extended the culture time of human foreskin fibroblasts (“HFF”) on FNf-ANPs or equivalent FNf, and evaluated cellular morphology. HFF (2.3×10^4 cells/cm^2) were cultured for 5 hours on surfaces prepared as described in Materials and Methods, then stained for F-actin with Texas Red X-conjugated phalloidin. Bar, 40 μm.
(§2) To analyze cellular morphology, shape factors were quantified for all conditions. […] Selected studies were also conducted to examine early cell attachment behavior on surfaces adsorbed with each of the four FNf-ANP preparations described above or corresponding FNf alone, such that levels FNf display were equivalent between each modality of ligand display as determined by ELISA.

[2] = test system: Human foreskin fibroblasts, HFF; assay: Cell-mediated aggregation/mobilization of Texas Red-labeled FNf-ANP; type: cell-based; conditions: 24 hours, Texas Red-labeled FNf-ANP 1.70 μg/cm^2
Method: Texas Red-labeled FNf-ANPs: Texas Red fluorophore (480 μg) was added to the albumin solution (30 ml reaction volume) at the final stirring step (37° C.), which is when ANPs begins to form, to incorporate Texas Red into the ANP. Non-encapsulated Texas Red was removed by dialysis. FNf were conjugated to Texas Red-labeled FNf-ANPs as described above.
In an experiment illustrated by FIG. 5c HFF were seeded on Texas Red-labeled FNf-ANP [1.70 μg/cm^2] and after 24 hours, fixed and stained for F-actin (panel B and E) with fluorescein-phalloidin. Panels A and D depict Texas Red FNf-ANP, and panels C and F are overlay images of labeled FNf-ANP and actin staining. Bar, 40

[3] = test system: Human foreskin fibroblasts, HFF; assay: Fibronectin matrix assembly by HFF, immunofluorescence and image analysis; type: cell-based
Method: as §1
In order to discern HFF-derived fibronectin from the FNf conjugated to ANPs or adsorbed to the substrate, an anti-fibronectin monoclonal antibody whose epitope lies outside of the 9th-10th type III repeat of the FNf was used to stain for fibronectin in these assays; the epitope for the monoclonal anti-fibronectin antibody is located in the 5th type III repeat of human fibronectin.
HFF were seeded on FNf-ANPs or FNf pre-coated surfaces prepared as described above. Two hours after seeding, ceils were treated with Y27632 (3 μM). Cells were cultured overnight at 37° C. before being processed for immunofluorescenee. For soluble FNf-ANP studies, HFF were seeded on non-coated Labtek chamber slides for 2 hours before being incubated with FNf-ANPs or FNf at concentrations used for surface adsorption as described above. Cells were cultured overnight at 37° C. in the continued presence of FNf-ANPs or FNf and processed for immunofluorescence.
Two-dimensional image analysis was performed on cell specimens double-stained with Texas Red-phalloidin (red for actin) and FITC-labeled secondary antibody against cell-secreted fibronectin antibody (green for fibronectin) using Image Pro Plus, version 5.0 (Media Cybemctics, Silver Spring, Md.). To examine fibronectin fibril coverage found only in the extracellular matrix, a semi-automated method was developed to identify fibrils only found in the extracellular matrix and assess assembly. Briefly, the images were filtered, segmented and analyzed to determine the extent of fibronectin assembled in the ECM in terms of the area occupied by fibronectin fibrils. Within each actin-stained image, the upper and lower, boundaries of the red fluorescence intensity were prescribed with a view to minimize the selection of all the pixels in the field corresponding to the actin stain (red) and to maximize the pixels that corresponded to the unlabeled ECM. The fibronectin stained image (green) was then used to prescribe the upper and lower boundaries of the green fluorescence intensity so that the selection of the green corresponding to fibronectin fibrils was maximized. The intensity range values from the red and green image were then applied to discriminate the fibronectin label within the ECM space using the overlay image of actin and fibronectin staining. By simultaneously applying the obtained values for the green and red fluorescent ranges to the overlay image, only the colocalized pixels that corresponded to both fibronectin and ECM space were identified, thus excluding intracellular fibronectin. Once these objects were selected and outlined, the area of these objects was determined by Image Pro and converted to squared micrometer units based on the objective and zoom factor used during image acquisition. This process was validated through effective comparison of the extent of matrix assembly obtained via semi-automated analysis to that obtained via manual thresholding.
A major function of fibroblasts is to assemble fibronectin into matrix fibrils. […]

[4] = test system: Human foreskin fibroblasts, HFF; assay: Cell adhesion assay (hexosaminidase); type: cell-based; conditions: 60 minutes
Method: To quantify cell attachment to FNf-ANPs, 96-well non-tissue culture dishes were coated overnight at 4° C. with FNf-ANPs or FNf as described above. Wells were washed with PBS and blocked with 1% bovine serum albumin. After washing with PBS, HFF were plated at 2.5×10^4 cells/well and incubated for 60 minutes at 37° C. Medium and unbound cells were removed by inversion of the plate and two washes with PBS. Quantification of the number of adherent cells was performed using the hexosaminidase assay. Briefly, substrate composed of a 1:1 mixture of 0.5% Triton-X 100 and 7.5 mM β-nitrophenyl N-acetyl β-D glucosaminide in 0.1 M citrate buffer, pH 5.0, was added to each well and incubated for 90 minutes at 37° C. The reaction was terminated with 50 mM glycine/5 mM EDTA, pH 10.4 and the absorbance read at 405 nm on a multiwell plate reader.
as §2

[5] = test system: ligand-occupied β1 integrins; assay: Localization of ligand-occupied β1 integrin (clone 12G10 staining); type: cell-based, human; conditions: HFF
Method: as §1
The α5β1 integrin transmits cytoskeleton-generated tension to the extracellular fibronectin molecules via a specific local pattern of integrin movement. Pankov et al, J Cell Biol 148 (5): 1075 (2000). To determine whether presentation of FNf via ANPs promotes fibronectin matrix assembly by regulating the dynamics of β1 integrins, a time course of the localization of ligand-occupied β1 on FNf and FNf-ANP was performed. A cation and ligand-induced binding site (CLIBS) class of monoclonal antibody (clone 12G10), that recognizes an extracellular epitope expressed after ligand occupation of human β1 integrin receptors was employed.
FIG. 5a illustrates the results of an experiment wherein HFF (2.7×10^4 cells/cm^2) were seeded on the highest concentration [1.70 μg/cm^2] of FNf or FNf-ANP and fixed after 2 and S hours. Cells were stained with a monoclonal anti-active 131 antibody (clone 12G 10), followed by Alexa Fluor 488-conjugated anti-mouse IgG. F-actin was visualized by staining with Texas Red-X phalloidin. Panels B, D, F, H, are overlay images of 131 and actin staining. Arrows denote translocating β1. Bar, 20 μm. […]

[6] = test system: Human foreskin fibroblasts; assay: Imaging of fibronectin matrix assembly as a function of carrier size and ligand density; type: cell-based; conditions: ligand-ANC in media instead of adsorbed
Method: Matrix assembly was analyzed as a function of ligand carrier size and ligand density. Substrates with equal levels of ligand but differential presentation were adsorbed in 8-well Labtek chamber slides overnight at 4° C. Substrates were then washed generously with PBS and blocked with BSA for 1 hour at 37° C. Fibroblasts were serum-starved at least 12 hours prior to trypsinization and re-plated at a density of 35,000 cells per well in serum free media. Cells were then cultured for 24 hours at 37° C. After 24 hour incubation, media was removed and substrates were washed with DPBS with calcium and magnesium. Cells were fixed with 1% formaldehyde for 9 minutes and washed with DPBS with calcium and magnesium. Cells were permeabilized with Triton-X 100 for 15 minutes and washed with DPBS with calcium and magnesium and blocked with 1% BSA for 1 hour at 37° C. Substrates were washed and primary antibody IST-4 (Sigma) for fibronectin that binds to the 5th type III repeat of human plasma fibronectin was incubated at a 1:100 dilution in PBS overnight at 4° C. Substrates were washed and incubated with FITC-conjugated donkey anti-mouse IgG (Jackson Immunolabs, West Grove, Pa.) at a 1:200 dilution for 30 minutes at room temperature, and were then washed and incubated with Texas-red phalloidin (Molecular Probes, Eugene, Oreg.) for 20 minutes at room temperature. […]

Substance: FNf-ANP: fibronectin fragment (GST fusion, type III repeats 9-10) covalently conjugated to the surface of 100 nm albumin nanoparticles
- cell spreading (morphology) ([1]; 45 minutes post seeding): well spread
- cell morphology ([1]; 5 hours of culture, F-actin staining): stellate shape with long, slender projections
- shape factor, (perimeter)^2/(4π(area)) ([1]; 5 hours, about 25 cells per condition, all FNf densities): 6-10
- FNf-ANP aggregation after plasma treatment of surfaces [2]: decreased the overall amount of FNf-ANP aggregation
- deposition of fibronectin into the ECM when presented via the culture medium ([3]; HFF on bare coverglass, ligand added to media, overnight): not sufficient
- assembly of fibronectin into matrix fibrils, FNf-ANP versus adsorbed FNf ([3]; HFF, 24 hours, highest densities of FNf): dramatic increase
- increase in surface area occupied by fibronectin matrix fibrils versus equivalent density of surface adsorbed FNf ([3]; HFF, 24 hours, image analysis of extracellular fibronectin, p=0.004): 42%
- matrix deposition of HFF-derived fibronectin, FNf-ANP versus adsorbed FNf ([3]; HFF, 24 hours, lowest levels of FNf ligand): no obvious difference
- extracellular fibrils of fibronectin, media presentation compared to substrate presentation ([3]; HFF, image analysis): significantly fewer
- fibronectin matrix fibrils in the extracellular space, immobilized versus non-immobilized surfaces ([3]; oxygen plasma, image analysis, p=0.0002): significantly decreased levels
- fibronectin matrix assembly, immobilized versus non-immobilized surfaces ([3]; surface pre-treated with oxygen plasma, 1.70 μg/cm^2): inhibited fibronectin matrix assembly
- number of cells attached relative to equivalent surface-adsorbed FNf ([4]; all concentrations other than the lowest): marked increase in the number of cells attached
- cell attachment ([4]; lowest amount of ligand tested): no detectable attachment
- concentration of ligand-occupied β1 integrins versus FNf alone ([5]; 5 hours of culture): remained higher
- β1 organization after oxygen plasma pre-treatment of surface ([5]; plasma-treated surface): loss of linear organization of β1 along actin filaments
- ligand-occupied β1 in focal contacts versus equivalent adsorbed FNf ([5]; two hours after plating, 1.70 μg/cm^2): more enriched
- matrix assembly with ligand-ANC supplemented to the media [6]: matrix assembly was not evident

Reference: US8715718B2, “Extracellular matrix production from nanoscale substrate” (Rutgers, The State University of New Jersey, priority 2006, dated 2014)
